From PubChem BioAssay AID624172 (National Center for Advancing Translational Sciences (NCATS), 2012) come the findings set out here.

By UniProt entry, the sequences of proteins in these tests, tags left out. Where a name states a change or a piece, a line headed by the entry shows the natural chain unless it says otherwise.
UniProt P43220, whole entry, stated change not applied: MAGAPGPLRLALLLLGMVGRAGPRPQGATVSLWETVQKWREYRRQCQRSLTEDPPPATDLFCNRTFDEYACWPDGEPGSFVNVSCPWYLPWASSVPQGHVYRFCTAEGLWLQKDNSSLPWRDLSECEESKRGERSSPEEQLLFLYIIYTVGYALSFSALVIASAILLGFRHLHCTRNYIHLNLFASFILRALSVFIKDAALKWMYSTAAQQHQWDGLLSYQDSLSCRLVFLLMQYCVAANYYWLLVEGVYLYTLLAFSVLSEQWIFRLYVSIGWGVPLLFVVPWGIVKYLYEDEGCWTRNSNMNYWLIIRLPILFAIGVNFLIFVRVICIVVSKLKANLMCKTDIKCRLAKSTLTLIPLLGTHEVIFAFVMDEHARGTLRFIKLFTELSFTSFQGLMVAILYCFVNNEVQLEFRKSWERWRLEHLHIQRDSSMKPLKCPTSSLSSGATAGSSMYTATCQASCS

This is a selection; strong and weak results do not stand in their true shares. Active and inactive are the calls of the source. Calls come from the whole dose curve; as a rule, active = well fitted activation curve with a large enough effect; inconclusive = small, poorly fitted or top-dose-only effect; inactive = no such curve, though single readings can be large or run the other way.

This test concerns the target Glucagon-like peptide 1 receptor (Homo sapiens) (UniProt P43220). As to the kind of experiment: qHTS of GLP-1 Receptor Agonists. Note: % of control where 0% means no effect. Conditions: HEK293 GLP-1R CRE-luciferase, luminescence, 4-6 h, cells express a hypersensitive GLP-1R form. An excerpt: The overall goal of this project was to develop a novel assay for discovering small molecule ligands for class B1 G protein-coupled receptors (GPCRs). Very few agonists (or inverse agonists) with generally weak activity for this entire group of physiologically important receptors are known to date. To establish proof-of-principle that this critical bottleneck can be overcome with a suitable screening approach, our studies focused on the class B1 receptor for glucagon-like peptide-1 (GLP-1R), a potential therapeutic target for diabetes and neurodegenerative disease.
The assay was developed in a "mix and measure" format using a cell-based functional readout. Toward this goal, stably transfected HEK293 cell clones were established that co-express (i) a cAMP-responsive luciferase reporter gene, and (ii) GLP-1Rs that upon ligand interaction either stimulate (agonists) or inhibit (inverse agonists) luciferase activity. In different cell lines to be used for screening, expressed GLP-1Rs are specifically optimized for high sensitivity detection of either weak agonists (hypersensitive receptor) or inverse agonists (constitutively active receptor mutant). In addition, control cell lines were developed that express either the cAMP-responsive reporter gene without recombinant GLP-1Rs (enabling initial exclusion of GLP-1R independent effects of candidate probes), or the reporter gene together with wild type GLP-1Rs (for confirmation of probe activity at this receptor), or the reporter gene in combination with the constitutively active orphan receptor GPR119 (enabling initial exclusion of GLP-1R independent inhibitory effects of candidate inverse agonists).
To that end, this assay was optimized for 1536-well format and screened against the MLSMR.
NIH Molecular Libraries Probe Production Network [MLPCN]
NIH Chemical Genomics Center [NCGC]
PI Name: Martin Beinborn, Tufts Medical Center
In a white solid 1536-well plate, 6 uL of cells are dispensed in DMEM without phenol red, 10% Nu serum, and 1% pen-strep medium. The plates are then incubated for 12 hours at 37 deg C at 5% CO2 before 23 nL of compounds are added. After a 4-6 hr incubation at37 deg C and 5% CO2, 3 uL of detection reagent are added and after a 12 min incubation at RT, a luminescent read is obtained on the ViewLux.
In general terms: In qHTS, concentration-response curves come from the screen itself.

On to `CCC(=O)N(c1ccccc1)C1(COC)CCN(CCc2cccs2)CC1`, for which the activation was inactive: -3.35% (at 45.6 µM (top of the series)) and inactive: -0.655% (at 96 µM (top of the series)).
Regarding `CCC(=O)N(c1ccccc1)C1(COC)CCN(CCn2nnn(CC)c2=O)CC1`, the activation is inactive: -1.6% (at 45.6 µM (top of the series)) and inactive: 4.73% (at 96 µM (top of the series)).
Consider `CN(CCCl)CCCl`, for which the activation (at 45.6 µM (top of the series)) is inactive: 5.83%.
